# Yeast mating assay B: variants of the scFv Ab-14

Reference: Li et al. 2023, doi:10.1038/s41467-023-39022-2. File: FLAb, binding data.

Binding partner: SARS-CoV-2 spike HR2 peptide, sequence PDVDLGDISGINAS.

Each scFv is VH, a (GGGGS)3 linker, VL, as in the parent Ab-14, and differs from it in the CDRs of the heavy chain only.
VH: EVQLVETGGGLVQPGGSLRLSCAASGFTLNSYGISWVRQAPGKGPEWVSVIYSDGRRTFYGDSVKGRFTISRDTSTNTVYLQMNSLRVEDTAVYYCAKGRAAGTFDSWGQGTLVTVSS
VL: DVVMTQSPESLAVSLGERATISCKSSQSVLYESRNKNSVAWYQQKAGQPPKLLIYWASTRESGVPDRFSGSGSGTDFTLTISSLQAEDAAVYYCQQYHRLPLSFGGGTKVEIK

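The parent was found by panning a naive human phage display library on the peptide. Designed CDR sequences, proposed from the first random library and measured here. Group labels follow the data file (Ctrl: baseline library sampled from a position-specific scoring matrix, with some repeated check sequences; GPLM: also part of the Gaussian process libraries; HC: hill climbing; Gen: genetic algorithm; a sequence that several methods proposed may carry one label only). The assay is AlphaSeq: two haploid yeast populations carry antibody and antigen on their surface. The frequency of each diploid, read from paired DNA barcodes, reflects how well the two displayed proteins bind. A regression on co-assayed BCL2-family reference pairs converts the normalised counts of each replicate to an apparent Kd. Each pool was mated in six replicate cultures.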

Each variant is given by its three heavy chain CDRs, as the data file delimits them; those of the parent are GFTLNSYGIS, VIYSDGRRTFYGDSVK, GRAAGTFDS.
The read-out is the apparent dissociation constant on a log10 scale (nM): the lower, the stronger.
Averages over replicates are reported, and they cover detected replicates only.
"ND" marks a missing value. The strain was present, yet no cells mated with the target were sequenced in that replicate, which points to weak or no binding.

| CDR-H1 | CDR-H2 | CDR-H3 | group | replicates, log10 nM | log10 Kd (nM), mean | control signals |
|---|---|---|---|---|---|---|
| GFTLNKYGIS | VIYADGRRTFYGDSVK | GTWAGTFDS | Ctrl | ND ND ND ND ND ND | ND | 0 of 18 |
| GFDLNSYGIS | VIYSDGRRTFYVDSVK | GRAAGTFDS | Ctrl+GPLM_HC | 1.43 -0.05 -0.06 0.09 0.94 0.96; 1.32 0.61 0.03 1.24 0.91 0.21 | 0.64 | 1 of 36 (0.96) |
| GFTLNSYGIS | VIYSDGRRTFYGDSVK | GRTAGTFDS | Ctrl+GPLM_Gen | ND 1.23 ND 0.14 0.78 0.52; 1.08 0.41 ND 0.38 0.88 1.35 | 0.75 | 0 of 36 |
| GFTLNSYGIS | VIYSDGMRTFYGDSVK | GMAAGTFES | Ctrl | ND ND ND ND ND ND | ND | 0 of 18 |
| TFTLNSYGIS | VIYSDGRRTFYGDSVK | HRAASMFDS | Ctrl | ND ND ND ND ND ND | ND | 0 of 18 |
| GFTLNSYGIS | VIYSDYRRTFYGDSVK | GTAAGTFDS | Ctrl | ND ND ND ND ND ND | ND | 0 of 18 |
| GFCLNSYGIS | VIYSDGERTFYTDSVK | GRAAGTFDS | Ctrl | 0.97 1.64 ND ND ND ND | 1.31 | 0 of 18 |
| GFTLNSYGIS | VIYSDGRRTAYGDSVK | GENAGTFWS | Ctrl | ND ND ND ND ND ND | ND | 0 of 18 |
| GNTLNSYGIS | VIYSDGRRTFYGDSTK | GRAAGFFDS | Ctrl | ND ND ND ND ND ND | ND | 0 of 18 |
| GFTLNSYGIT | VIYSDGRRTFYGDSVK | GRLAGTFDS | Ctrl | ND ND ND ND ND ND | ND | 0 of 18 |
| GFTLNSYGIS | VIYSDGRRTFYGDDVK | GYAAGTFDS | Ctrl | ND ND ND ND ND ND | ND | 0 of 18 |
| GFTVNSYGIS | VIYSDGQRTFYGDSVK | GRVAGTFKS | Ctrl | 0.92 2.42 1.25 0.10 0.38 1.24 | 1.05 | 2 of 18 (1.49) |
| GFNLNSYGIS | VIYSDGRRTFYGDQVK | GRAAGTFDS | Ctrl | ND ND ND ND ND ND | ND | 0 of 18 |
| GFTLNSYGIS | VIYSDGRRTFYQDFVK | GRAAGTFDS | Ctrl | ND ND ND ND ND ND | ND | 0 of 18 |
| GFTLNSYGIS | VIYSDGRRTFYGDAVK | GRAAGTFDL | Ctrl | ND 1.87 ND ND ND ND | 1.87 | 0 of 18 |
| GFNLNSYGIS | VIYSDGVRTFYGESVK | GRAAGTFDS | Ctrl | ND ND 1.40 ND 0.35 ND | 0.87 | 0 of 18 |
| GFTLNSYGIS | VIYSDGRRTFYGDSVK | CEAAGTFDS | Ctrl | ND ND ND ND ND 1.45 | 1.45 | 0 of 18 |
| GFSLNSYGIS | VIYADGRRTFYGDSVK | GRAAVTFDS | Ctrl | ND ND ND ND ND ND | ND | 0 of 18 |
| GFTLNSYGIS | VIYSDGRRTFYGDSVK | GDAMGTFDS | Ctrl | ND 2.33 ND ND 1.95 1.41 | 1.90 | 0 of 18 |
| GFTLNDYGIS | VIYSDGRRTFYGDSVK | GDAAGTSDS | Ctrl | ND ND ND ND ND ND | ND | 0 of 18 |
| GFTLNSYGIS | VIYSDGRRTFYYDSVR | GRAAGTFDS | Ctrl | ND ND ND ND ND ND | ND | 0 of 18 |
| GFTLESYGIS | VIYSDGRRTFYDQSVK | GRSAGTWDS | Ctrl | ND ND ND ND ND ND | ND | 0 of 18 |
| GFTLNSYGIS | VIYSDGRRTFYGDSVN | GSAAGTFDS | Ctrl | ND ND ND ND ND 2.01 | 2.01 | 1 of 18 (2.98) |
| GFDLNSYGIS | VIYSDGRRTFYGDSVK | GRAAAFFDS | Ctrl | ND ND ND ND ND ND | ND | 0 of 18 |
| GFTLNSYGIS | VIYSDGRRTFYIDSVK | GRASGTFDS | Ctrl | ND ND ND ND ND ND | ND | 0 of 18 |
| GFTLNSYGIS | VIYSDGQRTAYGGSVK | GRAAGTFDS | Ctrl | ND ND ND ND ND ND | ND | 0 of 18 |
| GFTLNSYGIS | VIYSDGRRNFYGDSVK | ERAAGTFDS | Ctrl | ND ND ND ND ND ND | ND | 0 of 18 |
| GFTLASYGIS | VIYSDGRRTFYGDSVK | GRFAGTFDN | Ctrl | ND ND ND ND ND ND | ND | 1 of 18 (0.46) |
| GYTLNSYGIS | VIYSDGRRTFYSDSVR | GRAADTFDS | Ctrl | ND 1.52 ND ND ND 0.96 | 1.24 | 1 of 18 (1.65) |
| GNTLNDYGIS | VIYSDGRRTAYGDSVK | GRLAGTFDS | Ctrl | 2.36 0.86 1.11 0.88 0.99 2.04 | 1.37 | 1 of 18 (0.83) |
| GFCLNSYGIS | VIYSDGQRTFYQDQVK | GTLAGTFPS | Ctrl | ND ND ND ND ND ND | ND | 0 of 18 |
| GFTLNSYGIS | VIYNDGRRTFYGDSVK | GYAAGTFDS | Ctrl | ND ND ND ND ND ND | ND | 0 of 18 |
| GFDLNSYGIS | VIYSDGRRTFYSDSVK | GRVAGWFDS | Ctrl | ND ND ND ND ND ND | ND | 0 of 18 |
| GFDLNSYGIS | VIYSDGWRTFHGDSVK | GRAAMTFDS | Ctrl | ND ND ND ND ND ND | ND | 0 of 18 |
| GFTLNSYGIS | VIYSDGRRTFYGDSVK | GRVGGLFDS | Ctrl | ND ND ND ND ND ND | ND | 0 of 18 |
| GFTLSSYGIS | VIYSDGRRTFYGDSVK | GKAEGTFDS | Ctrl | ND ND 2.49 1.44 ND ND | 1.97 | 1 of 18 (0.79) |
| GFTLNSYGIQ | VIYSDGLRTFYGDSVK | RRQAGTYDS | Ctrl | ND ND ND ND ND ND | ND | 0 of 18 |
| GFTLNSQGIS | VIYSDGRRTFYSDNVK | GTAAGTFSS | Ctrl | ND ND ND ND ND ND | ND | 0 of 18 |
| GFSLNSYGIS | VIYSDGRRTFYGNSVK | GRATGTFDS | Ctrl | ND ND ND ND ND ND | ND | 0 of 18 |
| GFTLNSYGIS | VIYSDGRRTFYTDSVK | GRAALTFES | Ctrl | ND ND ND ND ND ND | ND | 0 of 18 |
| GVTLNSYGIS | VIYSDGERTFYGDSVK | GRLAGTFDS | Ctrl | ND ND ND 2.06 ND ND | 2.06 | 1 of 18 (1.81) |
| GFTLNSYGIS | VIYSDGLRTFYMDSVK | GYAASTFDV | Ctrl | ND ND ND ND ND ND | ND | 0 of 18 |
| GFTLNSYGIS | VIYSDGVRTFYYDSVK | GRAAGTFDS | Ctrl | ND ND ND ND ND ND | ND | 0 of 18 |
| TFTLNSYGVS | VIYSDGRRTFYTDSVK | GRAAGPFDT | Ctrl | ND ND ND ND ND ND | ND | 0 of 18 |

Repeated from above, the 3 best binders with a signal in all replicates:

| CDR-H1 | CDR-H2 | CDR-H3 | group | replicates, log10 nM | log10 Kd (nM), mean | control signals |
|---|---|---|---|---|---|---|
| GFDLNSYGIS | VIYSDGRRTFYVDSVK | GRAAGTFDS | Ctrl+GPLM_HC | 1.43 -0.05 -0.06 0.09 0.94 0.96; 1.32 0.61 0.03 1.24 0.91 0.21 | 0.64 | 1 of 36 (0.96) |
| GFTVNSYGIS | VIYSDGQRTFYGDSVK | GRVAGTFKS | Ctrl | 0.92 2.42 1.25 0.10 0.38 1.24 | 1.05 | 2 of 18 (1.49) |
| GNTLNDYGIS | VIYSDGRRTAYGDSVK | GRLAGTFDS | Ctrl | 2.36 0.86 1.11 0.88 0.99 2.04 | 1.37 | 1 of 18 (0.83) |

The range of this assay differs from that of the first round, and the authors advise against merging the two.
The parent sequence was in this pool as ten entries: three were never detected, three once, and four in most replicates, with averages from 0.34 to 2.37.
A sequence that the file lists under several names has all its replicates listed entry by entry, parted by semicolons.
Empty control strains, which show no peptide, gave a signal in 1% of pairings with all heavy chain designs; the median was 2.08 and 95% of these signals were weaker than 0.84. No background was subtracted. Also given: how often the same scFv was detected with the empty control strains, with their mean in brackets.
The authors averaged sequences with at least three values out of six and counted those with two or fewer as poor binders.